# Screening data (PubChem BioAssay)
# Statin myotox sup = suppressors of simvastatin-induced myotoxicity in C2C12 myotubes. ATP luminescence, 48 h; scaled: DMSO 0, geranylgeraniol control 100. rescue of ATP level, % at 7.49 µM. 0.78% of 330,000 active. AID 602340;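 active means mean ATP rescue above about 67%, or every replicate alone reaching that limit, limit read from the data, passing the limit was not always enough; inconclusive means no clear call, values can overlap the other calls; inactive means mean under the limit and some replicate under it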;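 further: myotubes were challenged with 10 µM simvastatin during compound exposure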
# miR122 inh = miR-122 inhibition in Huh7 cells; Huh7 miR-122 Renilla luciferase sensor, 48 h; neutral wells = 0, positive control = 100; activation (reporter increase), % at 12.5 µM; 0.3% of 340,000 active; AID 602342;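 active means mean replicate activation score at least 90 and every replicate individually at or above 90; inconclusive means only one of the two criteria met; inactive means neither criterion met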;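 further: higher luciferase means less miR-122 activity so hits act as miR-122 inhibitors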
# UUG fidelity = modulators of yeast start codon fidelity, primary screen, whole organism, S. cerevisiae, single point, plate reader | AID 602363, 2012 | S. cerevisiae UUG-firefly luciferase reporter, luminescence/redox ratio | activity score, % at 18.7 µM | hit rate 0.13% among 350,000;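 active = replicate mean at a twofold rise or more, about +100% in these data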;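 also: firefly luciferase made from a UUG start codon reports start codon fidelity; reporter light over untreated wells divided by growth signal over untreated wells; some hits fall short of that in this replicate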
# Cneo AK release = causes C. neoformans cell lysis | lysis activity, % at 15 µM | adenylate kinase release luminescence, 4 h; normalised: neutral wells 0, clomiphene wells 100 | 0.2% of 360,000 active | AID 651654;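 active means mean lysis activity across replicates of at least 80%, whatever share of replicates individually reach that level; inactive means mean lysis activity below 80%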
#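 Assay system: log-phase C. neoformans yeast / Quantity: yeast cell density of 5 × 10^6 cells/mL / Medium: fresh YPD growth medium / Compound: single dose / Timing: static 4 h at 37 °C with compound, 1 h detection / Measured by: adenylate kinase release luminescence / Read-out: lysis from increased AK signal / Benchmarks: Clomiphene as positive lysis control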
# Glyco luc inh = N-linked glycosylation inhibition; D54 ERlucT glycosylation luciferase reporter, 24 h; percent of 100 nM tunicamycin response; reporter increase, % at 12.5 µM; 0.23% of 360,000 active;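 active means mean luciferase reporter signal, scaled so untreated is 0 and the glycosylation-blocking control 100, at or above a set limit in every replicate; inconclusive means mean reaches the limit but not every replicate does; inactive means mean below the limit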;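 further: luciferase carries N-glycosylation sites so blocking glycosylation raises the light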
# Numbers stand for hits; – = inactive; ? = inconclusive; · = not tested or not shown. Only some compounds are listed: those with a hit (about 1.2% of all), similar ones and a draw of the others.
SMILES,Statin myotox sup,miR122 inh,UUG fidelity,Cneo AK release,Glyco luc inh
O=[N+]([O-])c1ccccc1C=NNC(=S)NN=Cc1ccccc1[N+](=O)[O-],–,–,–,–,28
CC(C)NC(=S)N/N=C/c1ccccc1[N+](=O)[O-],·,·,·,·,–
C[C@@H]1CN([C@H](C)CO)C(=O)c2cc(/C=C/c3ccccc3)cnc2O[C@H]1CN(C)C(=O)c1ccncc1,·,–,–,–,·
CCOc1ccccc1CN(Cc1ccco1)S(=O)(=O)c1ccc(-n2cnnn2)c(OC)c1,–,138,–,–,–
Cc1noc(C)c1NC(=O)N(C)C[C@H]1Oc2ccc(NS(=O)(=O)c3cn(C)cn3)cc2CC(=O)N([C@H](C)CO)C[C@H]1C,–,–,–,102,·
Cc1noc(C)c1S(=O)(=O)Nc1ccc2c(c1)CC(=O)N([C@@H](C)CO)C[C@@H](C)[C@@H](CN(C)S(=O)(=O)c1cccs1)O2,–,–,–,106,·
Cc1noc(C)c1S(=O)(=O)Nc1ccc2c(c1)CC(=O)N([C@H](C)CO)C[C@H](C)[C@@H](CN(C)S(=O)(=O)c1cn(C)cn1)O2,–,–,–,110,·
Cc1noc(C)c1S(=O)(=O)Nc1ccc2c(c1)CC(=O)N([C@@H](C)CO)C[C@H](C)[C@H](CN(C)S(=O)(=O)c1cccs1)O2,–,–,–,–,·
O=C(CN1CCN(c2ccccn2)CC1)Nc1ccc(F)cc1,116,–,–,–,–
O=C(CN1CCN(c2ccccn2)CC1)NCCc1ccccc1,111,–,–,–,–
O=C(CN1CCN(c2ccccn2)CC1)Nc1ccccc1,–,–,–,–,–
CCC(=O)N(C)C[C@@H]1Oc2cc(C#CC(C)(C)O)ccc2S(=O)(=O)N([C@H](C)CO)C[C@H]1C,–,–,–,103,·
C[C@@H]1CN([C@H](C)CO)S(=O)(=O)c2ccc(C#CC(C)(C)O)cc2O[C@H]1CN(C)C(=O)CN(C)C,–,–,–,–,·
CCC(=O)N(C)C[C@H]1Oc2cc(C#CC(C)(C)O)ccc2S(=O)(=O)N([C@@H](C)CO)C[C@H]1C,–,–,–,–,·
CCC(=O)N(C)C[C@H]1Oc2cc(C#CC(C)(C)O)ccc2S(=O)(=O)N([C@@H](C)CO)C[C@@H]1C,–,–,–,98,·
Cn1nccc1C(=O)Nc1ccc(S(=O)(=O)N2CCCC2)cc1,–,–,–,–,–
Cn1nc(C(=O)Nc2ccc(S(=O)(=O)N3CCCCC3)cc2)ccc1=O,96,–,–,–,–
COc1cc(S(=O)(=O)Nc2ncccc2C)c(OC)cc1Cl,121,–,–,–,–
CC(=O)Nc1ccc(NC(=O)c2ccc(-c3c(C)noc3C)c3ccoc23)cc1,–,–,–,–,?
COc1cc(NC(=O)c2ccc(-c3c(C)noc3C)c3ccoc23)cc(OC)c1OC,–,–,–,–,33
COc1ccc(/C=C2\CCC/C(=C\C=N\N(C)C)C2=O)cc1,·,·,·,·,–
CN(C)/N=C/C=C1\CCC/C(=C\c2ccc(F)c(F)c2)C1=O,·,–,·,·,32
CC[C@@]12C(=O)N(c3cccc(Cl)c3)C(=O)N1[C@H](c1ccc(Br)cc1)[C@@H]1C(=O)N(C(C)(C)C)C(=O)[C@@H]12,–,–,–,–,–
CC(C)C[C@@]12C(=O)N(c3cccc(Cl)c3)C(=O)N1[C@H](c1ccc(Br)cc1)[C@@H]1C(=O)N(C(C)(C)C)C(=O)[C@@H]12,98,–,–,–,–
CCOc1cc(N2CCOCC2)c(OCC)cc1NC(=O)CN1C(=O)NC2(CCc3ccccc32)C1=O (stereo not drawn),89,–,–,–,–
SMILES,Statin myotox sup,miR122 inh,UUG fidelity,Cneo AK release,Glyco luc inh
CCOc1cc(N2CCOCC2)c(OCC)cc1NC(=O)CN1C(=O)NC2(CCCCCCC2)C1=O,–,–,–,–,–
CSCC[C@H](NC(=O)[C@H](Cc1ccccc1)n1c(=O)[nH]c2ccccc2c1=O)C(=O)N[C@@H](Cc1ccccc1)C(=O)O,–,–,–,–,–
O=C(/C=C/c1ccc2c(c1)OCO2)NCCSCc1cccc(Cl)c1,·,115,–,–,–
COc1ccc(S(=O)(=O)NCCc2nnc3ccc(SCC(=O)Nc4cc(C)on4)nn23)cc1,·,·,·,·,–
Cc1cc(NC(=O)CSc2ccc3nnc(CCNS(=O)(=O)c4ccccc4)n3n2)no1,86,–,–,–,–
CCOc1cc2[nH]c(=S)n(CCOC)c(=O)c2cc1OCC,111,–,–,–,–
C[C@H](CO)N1C[C@H](C)[C@H](CN(C)Cc2ccc3c(c2)OCO3)OCc2cnnn2CCCC1=O,–,–,–,–,·
COCCNC(=O)c1c(CS(=O)(=O)c2ccccc2)noc1C(=O)NCc1ccccc1,96,–,–,–,–
COc1cccc(C(=O)Nc2ccccc2C(=O)N2CCCC2)c1,100,–,–,–,–
COc1ccc(C(=O)Nc2cc([N+](=O)[O-])ccc2N2CCN(C)CC2)cc1,·,·,·,·,–
COc1cccc(C(=O)Nc2cc([N+](=O)[O-])ccc2N2CCN(C)CC2)c1,–,292,–,–,–
COC(=O)c1c(NC(=O)c2ccccc2)sc(Cc2ccccc2)c1C,–,–,–,–,–
COC(=O)c1c(NC(C)=O)sc(Cc2ccccc2)c1C,–,153,–,–,–
Cc1cc(N/N=C/c2ccc(O)c(C)c2O)nc(-c2ccccc2O)n1,·,101,–,–,–
COCC(=O)Nc1ccc2c(c1)C(=O)N(C)[C@@H]1CC[C@@H](CC(=O)O)O[C@@H]1CO2,–,–,–,–,·
N#Cc1cnn(Cc2ccc(Cl)cc2)c1N,–,–,–,–,–
N#Cc1cnn(Cc2ccccc2)c1N,112,–,–,–,–
Cc1ccc2nc(-c3ccc(-c4cccc(Cl)c4)cc3)c(NCc3ccccc3)n2c1,85,–,–,–,–
COc1cc(-c2nc3ccc(C)cn3c2NCc2ccccc2)ccc1-c1cccc(Cl)c1,–,–,–,–,–
COc1ccccc1NS(=O)(=O)c1cccc(NC(=O)c2nc3nc(C)cc(C)n3n2)c1,126,–,–,–,–
COc1ccccc1NS(=O)(=O)c1cccc(NC(=O)c2ccc3ccccc3n2)c1,110,–,–,–,–
NC(=O)c1ccc(N=Cc2ccc([N+](=O)[O-])s2)cc1,·,·,·,·,44
Cc1cc(C)cc(N=Cc2ccc([N+](=O)[O-])s2)c1,·,·,·,·,–
O=C(Nc1ccc(Cl)cc1)N1CCN(c2ccc3nnc(-c4ccc(F)cc4)n3n2)CC1,–,–,–,–,100
O=C(Nc1ccccc1Cl)N1CCN(c2ccc3nnc(-c4ccccc4)n3n2)CC1,–,–,–,–,–
O=C([C@H]1[C@H](CO)[C@H]2Cn3c(cccc3=O)[C@@H]1N2Cc1cccc(Cl)c1)N1CCOCC1,–,·,·,90,·
CCn1ccc(=N)cc1,113,–,–,–,–
CCCCCn1ccc(=N)cc1,–,–,–,–,–
Fc1ccccc1COc1ccc(-c2nnn(Cc3ccccc3F)n2)cc1,120,–,–,–,–
Cn1nnc(-c2ccc(OCc3ccccc3F)cc2)n1,–,–,–,–,–
